Results reported in paper PMC2782037 (The Journal of Biological Chemistry, 2009).

Biological target: T1, Full-length human FANCI with an N-terminal hexahistidine tag (human, UniProt Q9NVI1-3 1-1328)
T1 sequence (looked up): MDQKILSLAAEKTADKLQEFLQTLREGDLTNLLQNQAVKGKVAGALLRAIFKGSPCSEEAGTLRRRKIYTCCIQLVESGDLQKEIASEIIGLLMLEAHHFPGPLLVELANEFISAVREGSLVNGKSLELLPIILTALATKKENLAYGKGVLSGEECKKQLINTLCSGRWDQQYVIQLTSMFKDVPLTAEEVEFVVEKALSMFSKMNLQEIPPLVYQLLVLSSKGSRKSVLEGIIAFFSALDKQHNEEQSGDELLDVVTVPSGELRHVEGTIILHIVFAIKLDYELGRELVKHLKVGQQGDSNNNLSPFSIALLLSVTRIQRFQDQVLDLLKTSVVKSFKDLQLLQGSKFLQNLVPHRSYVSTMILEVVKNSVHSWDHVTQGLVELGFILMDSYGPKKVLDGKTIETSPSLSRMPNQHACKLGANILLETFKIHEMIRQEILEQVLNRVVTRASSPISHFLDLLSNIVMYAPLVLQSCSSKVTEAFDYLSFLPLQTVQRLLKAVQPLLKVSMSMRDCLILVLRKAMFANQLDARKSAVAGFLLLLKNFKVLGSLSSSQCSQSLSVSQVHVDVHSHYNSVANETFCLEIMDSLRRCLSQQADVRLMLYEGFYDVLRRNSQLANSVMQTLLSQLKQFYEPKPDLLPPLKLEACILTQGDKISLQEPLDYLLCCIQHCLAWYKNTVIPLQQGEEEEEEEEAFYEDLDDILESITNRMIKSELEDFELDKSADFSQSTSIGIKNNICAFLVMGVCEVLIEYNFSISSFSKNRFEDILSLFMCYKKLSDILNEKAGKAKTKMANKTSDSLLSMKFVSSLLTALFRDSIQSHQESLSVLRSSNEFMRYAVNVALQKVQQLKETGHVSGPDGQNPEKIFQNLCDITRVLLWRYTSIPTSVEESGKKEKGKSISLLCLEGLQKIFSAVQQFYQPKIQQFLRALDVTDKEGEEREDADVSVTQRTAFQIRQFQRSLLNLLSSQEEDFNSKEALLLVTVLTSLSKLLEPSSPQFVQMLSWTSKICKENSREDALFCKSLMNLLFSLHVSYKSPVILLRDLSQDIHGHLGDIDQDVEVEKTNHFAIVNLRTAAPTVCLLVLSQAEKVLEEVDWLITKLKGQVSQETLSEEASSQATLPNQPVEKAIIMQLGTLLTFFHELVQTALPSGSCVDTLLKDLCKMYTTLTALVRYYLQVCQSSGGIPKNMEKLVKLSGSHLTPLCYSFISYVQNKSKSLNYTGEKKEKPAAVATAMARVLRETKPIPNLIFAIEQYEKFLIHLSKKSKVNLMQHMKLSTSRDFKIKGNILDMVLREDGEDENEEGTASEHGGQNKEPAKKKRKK
Assay: SEC

B1: Human FANCD2, non-tagged (natural protein, UniProt Q9BXW9-2 1-1451, looked up)
chain: MVSKRRLSKSEDKESLTEDASKTRKQPLSKKTKKSHIANEVEENDSIFVKLLKISGIILKTGESQNQLAVDQIAFQKKLFQTLRRHPSYPKIIEEFVSGLESYIEDEDSFRNCLLSCERLQDEEASMGASYSKSLIKLLLGIDILQPAIIKTLFEKLPEYFFENKNSDEINIPRLIVSQLKWLDRVVDGKDLTTKIMQLISIAPENLQHDIITSLPEILGDSQHADVGKELSDLLIENTSLTVPILDVLSSLRLDPNFLLKVRQLVMDKLSSIRLEDLPVIIKFILHSVTAMDTLEVISELREKLDLQHCVLPSRLQASQVKLKSKGRASSSGNQESSGQSCIILLFDVIKSAIRYEKTISEAWIKAIENTASVSEHKVFDLVMLFIIYSTNTQTKKYIDRVLRNKIRSGCIQEQLLQSTFSVHYLVLKDMCSSILSLAQSLLHSLDQSIISFGSLLYKYAFKFFDTYCQQEVVGALVTHICSGNEAEVDTALDVLLELVVLNPSAMMMNAVFVKGILDYLDNISPQQIRKLFYVLSTLAFSKQNEASSHIQDDMHLVIRKQLSSTVFKYKLIGIIGAVTMAGIMAADRSESPSLTQERANLSDEQCTQVTSLLQLVHSCSEQSPQASALYYDEFANLIQHEKLDPKALEWVGHTICNDFQDAFVVDSCVVPEGDFPFPVKALYGLEEYDTQDGIAINLLPLLFSQDFAKDGGPVTSQESGQKLVSPLCLAPYFRLLRLCVERQHNGNLEEIDGLLDCPIFLTDLEPGEKLESMSAKERSFMCSLIFLTLNWFREIVNAFCQETSPEMKGKVLTRLKHIVELQIILEKYLAVTPDYVPPLGNFDVETLDITPHTVTAISAKIRKKGKIERKQKTDGSKTSSSDTLSEEKNSECDPTPSHRGQLNKEFTGKEEKTSLLLHNSHAFFRELDIEVFSILHCGLVTKFILDTEMHTEATEVVQLGPPELLFLLEDLSQKLESMLTPPIARRVPFLKNKGSRNIGFSHLQQRSAQEIVHCVFQLLTPMCNHLENIHNYFQCLAAENHGVVDGPGVKVQEYHIMSSCYQRLLQIFHGLFAWSGFSQPENQNLLYSALHVLSSRLKQGEHSQPLEELLSQSVHYLQNFHQSIPSFQCALYLIRLLMVILEKSTASAQNKEKIASLARQFLCRVWPSGDKEKSNISNDQLHALLCIYLEHTESILKAIEEIAGVGVPELINSPKDASSSTFPTLTRHTFVVFFRVMMAELEKTVKKIEPGTAADSQQIHEEKLLYWNMAVRDFSILINLIKVFDSHPVLHVCLKYGRLFVEAFLKQCMPLLDFSFRKHREDVLSLLETFQLDTRLLHHLCGHSKIHQDTRLTQHVPLLKKTLELLVCRVKAMLTLNNCREAFWLGNLKNRDLQGEEIKSQNSQESTADESEDDMSSQASKSKATEDGEEDEVSAGEKEQDSDESYDDSD
B1 was tested, and the “stoichiometry N” value was 1.
